Measured values: ChEMBL document CHEMBL1781889, “A chemometric study of the 5-HT(1A) receptor affinities presented by arylpiperazine compounds” (Eur J Med Chem, 2008)

Protein sequences, listed by entry. Tags and fused reporters are not part of them.
UniProt P08908, whole entry: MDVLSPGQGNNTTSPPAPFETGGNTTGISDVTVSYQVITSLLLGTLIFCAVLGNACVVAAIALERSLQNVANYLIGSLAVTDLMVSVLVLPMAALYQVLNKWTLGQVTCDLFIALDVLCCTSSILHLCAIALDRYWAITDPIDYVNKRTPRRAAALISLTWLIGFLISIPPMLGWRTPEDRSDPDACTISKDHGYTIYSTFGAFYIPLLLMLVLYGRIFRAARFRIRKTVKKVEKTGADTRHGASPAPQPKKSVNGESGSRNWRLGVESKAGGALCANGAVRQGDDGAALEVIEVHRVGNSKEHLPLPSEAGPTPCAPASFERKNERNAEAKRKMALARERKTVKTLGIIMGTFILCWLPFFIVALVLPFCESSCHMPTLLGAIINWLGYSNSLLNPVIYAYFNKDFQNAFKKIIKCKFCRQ

Target: 5-hydroxytryptamine receptor 1A (Homo sapiens, UniProt P08908)
Assay: Binding affinity to 5HT1A receptor

Ki: 2750 nM
SMILES: OC(CCN1CCN(c2ccc(Cl)cc2)CC1)c1ccsc1 (stereo unspecified)
